# Data published in ChEMBL document CHEMBL3872262, “Synthesis of novel C4-benzazole naphthalimide derivatives with potent anti-tumor properties against murine melanoma” (Bioorg Med Chem, 2017).
# Test system: B16-F10
# Experiment: Cytotoxicity against mouse B16F10 cells measured after 2 days by MTS assay
# Format: functional, cell-based
row,Structure (SMILES),Activity
1,CN(C)CCN1C(=O)c2cccc3c(-c4nc5ccccc5o4)ccc(c23)C1=O,Dose-dependent effect
2,CN(C)CCN1C(=O)c2cccc3c(-c4nc5ccccc5s4)ccc(c23)C1=O,Dose-dependent effect
